Data: patent US10934275B2, “IRE1 small molecule inhibitors” (Cornell University, priority 2016, dated 2021)

By UniProt entry, the sequences of proteins in these tests, tags left out. Residues count along the entry.
UniProt O75460, 468-977 limits assumed: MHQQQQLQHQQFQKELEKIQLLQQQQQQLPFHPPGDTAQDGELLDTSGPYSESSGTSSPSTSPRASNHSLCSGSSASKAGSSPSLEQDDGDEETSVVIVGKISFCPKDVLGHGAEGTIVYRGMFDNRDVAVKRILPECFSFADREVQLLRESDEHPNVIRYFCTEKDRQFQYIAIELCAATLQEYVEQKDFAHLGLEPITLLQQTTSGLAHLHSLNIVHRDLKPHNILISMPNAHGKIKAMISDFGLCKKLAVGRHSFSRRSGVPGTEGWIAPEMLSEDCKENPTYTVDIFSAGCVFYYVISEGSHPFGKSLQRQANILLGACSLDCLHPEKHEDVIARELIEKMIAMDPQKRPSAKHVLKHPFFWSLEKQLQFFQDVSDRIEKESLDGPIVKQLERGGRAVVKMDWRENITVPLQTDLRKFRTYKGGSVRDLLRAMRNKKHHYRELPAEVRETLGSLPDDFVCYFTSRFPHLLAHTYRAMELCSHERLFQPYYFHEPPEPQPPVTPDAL
UniProt O75460, 19-977 limits assumed: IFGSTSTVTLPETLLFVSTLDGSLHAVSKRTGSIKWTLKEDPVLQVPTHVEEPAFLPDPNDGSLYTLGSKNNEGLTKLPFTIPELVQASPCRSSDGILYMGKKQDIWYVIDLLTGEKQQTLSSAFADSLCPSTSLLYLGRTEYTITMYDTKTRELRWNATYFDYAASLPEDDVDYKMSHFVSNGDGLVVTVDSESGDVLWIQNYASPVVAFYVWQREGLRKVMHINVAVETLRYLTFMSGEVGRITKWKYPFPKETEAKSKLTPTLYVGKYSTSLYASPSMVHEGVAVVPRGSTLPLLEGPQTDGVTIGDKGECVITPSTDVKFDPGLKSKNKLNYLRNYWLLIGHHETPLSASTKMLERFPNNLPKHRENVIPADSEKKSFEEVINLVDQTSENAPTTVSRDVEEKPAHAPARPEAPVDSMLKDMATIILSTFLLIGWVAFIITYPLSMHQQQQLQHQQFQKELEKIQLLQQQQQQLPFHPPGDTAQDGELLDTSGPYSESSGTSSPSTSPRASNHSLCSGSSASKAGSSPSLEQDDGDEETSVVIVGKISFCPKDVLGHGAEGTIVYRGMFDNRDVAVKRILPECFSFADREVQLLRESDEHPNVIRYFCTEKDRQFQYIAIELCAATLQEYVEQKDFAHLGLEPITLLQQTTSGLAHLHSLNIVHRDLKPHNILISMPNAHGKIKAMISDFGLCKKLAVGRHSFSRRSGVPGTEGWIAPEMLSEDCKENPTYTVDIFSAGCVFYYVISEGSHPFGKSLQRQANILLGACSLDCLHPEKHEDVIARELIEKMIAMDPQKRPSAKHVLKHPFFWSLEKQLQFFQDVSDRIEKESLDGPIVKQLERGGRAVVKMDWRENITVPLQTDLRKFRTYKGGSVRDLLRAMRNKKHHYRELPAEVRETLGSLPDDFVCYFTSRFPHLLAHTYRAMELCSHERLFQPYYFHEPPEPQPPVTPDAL

Legend:
[1] = molecular target: T1, IRE1α (Homo sapiens, UniProt O75460); test: In vitro FRET assay (XBP1 RNA probe cleavage by IRE1α)
Method: In vitro FRET assay was performed to evaluate the ability of select compounds to inhibit IRE1, the results of which are summarized in Table 5. To perform the in vitro FRET assay, 1× complete assay buffer (CAB; […], 50 mM sodium citrate pH 7.15, 1 mM magnesium acetate, 0.02% tween 20) was used to dilute SignalChem IRE1α protein to a final concentration of 2 nM. Selected compounds were serially diluted with DMSO in a non-binding black 384-well plate for a total of 15 ul in each well. 2 ul of the serially diluted compound or DMSO control were then added to new wells containing 98 ul of 1×CAB, for a total volume of 100 ul, 10 ul of which were then transferred to wells of a new plate. 5 ul of the diluted IRE1α was then added to each well. 5 ul of a […] XBP1 RNA probe was then added to each well. Fluorescence was then read over 30 minutes in kinetic mode (485/515 nm).
Two RNA probes were used, XBP1 wildtype (SEQ ID NO: 2) which is able to be spliced by active IRE1α or XBP1 mutant (SEQ ID NO: 3) which is unable to be spliced. Each probe contained a 5′ 6-FAM modification and a 3′ IOWA Black FQ modification.
A second FRET assay was performed to assess ATP-mediated inhibition. In this case, compounds and IRE1α were prepared and combined as discussed above, with the addition of ATP up to 1 mM final concentration. This mixture was incubated at room temperature for 60 minutes and then 5 ul of 400 nM XBP1 wildtype or mutant RNA probe was added. Plates were then read over 30 minutes in kinetic mode (485/515 nm).

[2] = molecular target: T1, IRE1α; test: IRE1α Endoribonuclease Nanoluciferase Assay (XBP1 luciferase reporter, 293T cells); details: read-out: Mean EC50, 293T cells transfected with XBP1 luciferase reporter plasmid, stressors +/- inhibitors
Method: Compounds disclosed herein were assessed for disruption of IRE-1 signaling using a IRE1α Endoribonuclease Nanoluciferase Assay. Briefly, 2.5×10^6 293T cells were seeded in a 10 cm^2 tissue culture plate. About 24 hours later, the cells were transfected with Effectene. In a 15 mL Tube, the following was added: 2 μg XBP1 luciferase reporter plasmid (PGK-Luc2-P2A-XBP1u-Nanoluciferase-PEST); 300 μl EC buffer; and 16 μl Enhancer, followed by incubation at room temp for 5 minutes. Next, 60 μl Effectene (Qiagen 301427) was added, followed by incubation at room temperature for 10 minutes. 2.6 mL cDMEM media was added. Old media was aspirated from the cells, followed by addition of 7 mL fresh media. Full transfection mixture was added dropwise to cells. Cells were incubated for 6 hours, followed by tripsinization, centrifugation and resuspension in 11 mL media. 100 uL of cells were plated per a well in a 96 well plate. A day later, stressors of choice +/− inhibitors were added. To harvest, media was aspirated from cells completely, then 50 uL 1× passive lysis buffer (Promega: E1941) was added per well and put on shaker (300 rpm) for 30 minutes at room temperature. Cells were centrifuged, and 15 uL sample per well was added to a new, opaque white 384 well plate (Corning 3570). 15 uL OneGlo (nanoluciferase kit, Promega N1630) was added. Plates were spun down, placed on shaker (300 rpm) for 10 minutes. Plates were read on luminometer, 1000 ms integration time per well. 15 uL Stop and Glo (nanoluciferase kit) was added. Plates were spun down, placed on shaker (300 rpm) for 10 minutes. Plates were read on luminometer, 1000 ms second integration time per well. Recordings are provided below in Table 6.

[3] = read-out: Mean EC50, SignalChem IRE1α protein 2 nM
[4] = read-out: Mean EC50, SignalChem IRE1α protein 2 nM, tested form: trifluoroacetate

With `CNCCN(C)Cc1ccc(NC(=O)Nc2cc(-c3ccc4nc(N)ncc4c3)n(C)n2)cc1C(F)(F)F` the EC50 [1, 3] was 5 to 50 nM and the EC50 [2] was over 100 nM.
Work on `CN1CCN(Cc2ccc(NC(=O)Nc3cc(-c4ccc5nc(NC6CCC(F)(F)CC6)ncc5c4)n(C)n3)cc2C(F)(F)F)CC1` yielded an EC50 [1, 3] of over 100 nM and an EC50 [2] of over 100 nM.
Work on `CN1CCN(Cc2ccc(NC(=O)Nc3cc(-c4ccc5nc(N[C@@H]6CCC[C@@H](N)C6)ncc5c4)n(C)n3)cc2C(F)(F)F)CC1` yielded an EC50 [1, 3] of under 5 nM and an EC50 [2] of over 100 nM.
`CN(CCN)Cc1ccc(NC(=O)Nc2cc(-c3ccc4nc(N)ncc4c3)n(C)n2)cc1C(F)(F)F` gave an EC50 [1, 3] of over 100 nM and an EC50 [2] of over 100 nM.
`CN1CCN(Cc2cnc(NC(=O)Nc3cc(-c4ccc5nc(NC6CCNCC6)ncc5c4)n(C)n3)cc2C(F)(F)F)CC1` showed an EC50 [1, 3] of 50 to 100 nM.
For `CN1CCN(Cc2ccc(NC(=O)Nc3cc(-c4ccc5nc(N[C@H]6CCCNC6)ncc5c4)n(C)n3)cc2C(F)(F)F)CC1`, the EC50 [1, 3] was under 5 nM and the EC50 [2] was 5 to 50 nM.
`CN1CCN(Cc2ccc(NC(=O)Nc3cc(-c4ccc5nc(N[C@H]6CC[C@H](N)CC6)ncc5c4)n(C)n3)cc2C(F)(F)F)CC1` was tested, and the EC50 [1, 4] was under 5 nM and the EC50 ([2]; tested form: trifluoroacetate) was 5 to 50 nM.
`CN1CCN(Cc2ccc(NC(=O)Nc3cc(-c4ccc5nc(N[C@H]6CC[C@@H](N)CC6)ncc5c4)n(C)n3)cc2C(F)(F)F)CC1` gave an EC50 [1, 3] of under 5 nM and an EC50 [2] of 5 to 50 nM.
In the case of `CC(c1ccc(NC(=O)Nc2cc(-c3ccc4nc(NC5CCNCC5)ncc4c3)n(C)n2)cc1C(F)(F)F)N1CCN(C)CC1` (centres unmarked), the EC50 [1, 3] is reported as under 5 nM and the EC50 [2] is reported as over 100 nM.
Compound `CN(C)CCN(C)Cc1ccc(NC(=O)Nc2cc(-c3ccc4nc(NC5CCNCC5)ncc4c3)n(C)n2)cc1C(F)(F)F` has an EC50 [1, 3] of 50 to 100 nM and an EC50 [2] of over 100 nM.
Compound `CN1CCN(Cc2ccc(NC(=O)Nc3cc(-c4ccc5nc(NCCCN)ncc5c4)n(C)n3)cc2C(F)(F)F)CC1` has an EC50 [1, 3] of under 5 nM and an EC50 [2] of over 100 nM.
Compound `CNC1CCN(Cc2ccc(NC(=O)Nc3cc(-c4ccc5nc(NC6CCC(N)CC6)ncc5c4)n(C)n3)cc2C(F)(F)F)CC1` (centres unmarked) has an EC50 [1, 3] of under 5 nM.
`CN1CCN(Cc2ccc(NC(=O)Nc3cc(-c4ccc5nc(N[C@@H]6CCNC6)ncc5c4)n(C)n3)cc2C(F)(F)F)CC1` was tested, and the EC50 ([1]; read-out: Mean EC50, SignalChem IRE1α protein 2 nM, tested form: formate) was under 5 nM and the EC50 ([2]; tested form: formate) was over 100 nM.
Compound `CN1CCN(Cc2ccc(NC(=O)Nc3cc(-c4ccc5nc(N[C@@H]6CCCNC6)ncc5c4)n(C)n3)cc2C(F)(F)F)CC1` has an EC50 [1, 3] of under 5 nM and an EC50 [2] of over 100 nM.
In the case of `CN1CCN(Cc2ccc(NC(=O)Nc3cc(-c4ccc5nc(NC6CCCNC6)ncc5c4)n(C)n3)cc2C(F)(F)F)CC1` (centres unmarked), the EC50 [1, 4] is reported as under 5 nM and the EC50 ([2]; tested form: trifluoroacetate) is reported as 5 to 50 nM.
`CN1CCN(Cc2ccc(NC(=O)Nc3cc(-c4ccc5nc(N[C@H]6CCNC6)ncc5c4)n(C)n3)cc2C(F)(F)F)CC1` gave an EC50 [1, 3] of under 5 nM and an EC50 [2] of over 100 nM.
Work on `CN(C)Cc1ccc(NC(=O)Nc2cc(-c3ccc4nc(NC5CCNCC5)ncc4c3)n(C)n2)cc1C(F)(F)F` yielded an EC50 [1, 3] of over 100 nM.
Work on `CC(c1ccc(NC(=O)Nc2cc(-c3ccc4nc(N[C@H]5CCCNC5)ncc4c3)n(C)n2)cc1C(F)(F)F)N1CCN(C)CC1` (some centres unmarked) yielded an EC50 [1, 3] of under 5 nM and an EC50 [2] of under 5 nM.
For `CN1CC2CCC(C1)N2Cc1ccc(NC(=O)Nc2cc(-c3ccc4nc(NC5CCNCC5)ncc4c3)n(C)n2)cc1C(F)(F)F`, the EC50 [1, 3] was 5 to 50 nM and the EC50 [2] was over 100 nM.
`CC(c1ccc(NC(=O)Nc2cc(-c3ccc4nc(NC5CCC(N)CC5)ncc4c3)n(C)n2)cc1C(F)(F)F)N1CCN(C)CC1` (centres unmarked) gave an EC50 [1, 3] of under 5 nM and an EC50 [2] of under 5 nM.
With `CCc1cc(-c2cc(NC(=O)Cc3ccc(CN4CCN(C)CC4)c(C(F)(F)F)c3)nn2C)cc2cnc(NC3CCC(N)CC3)nc12` (centres unmarked) the EC50 [1, 3] was over 100 nM.
`CN1CC2CCC1CN2Cc1ccc(NC(=O)Nc2cc(-c3ccc4nc(NC5CCNCC5)ncc4c3)n(C)n2)cc1C(F)(F)F` (centres unmarked) gave an EC50 [1, 3] of over 100 nM and an EC50 [2] of over 100 nM.
Work on `CN1CCN(Cc2ccc(NC(=O)Nc3cc(-c4ccc5nc(NCC6CNC6)ncc5c4)n(C)n3)cc2C(F)(F)F)CC1` yielded an EC50 [1, 3] of 5 to 50 nM.
With `CN1CCN(Cc2ccc(NC(=O)Nc3cc(-c4ccc5nc(NC6CCNCC6)ncc5c4)n(C)n3)cc2C(F)(F)F)CC1` [2; TFA] the EC50 [1, 3] was over 100 nM.
`CNCCN(C)Cc1ccc(NC(=O)Nc2cc(-c3ccc4nc(NC5CCC(N)CC5)ncc4c3)n(C)n2)cc1C(F)(F)F` (centres unmarked) was tested, and the EC50 [1, 3] was under 5 nM and the EC50 [2] was 5 to 50 nM.
For `CN1CCN(Cc2ccc(NC(=O)Nc3cc(-c4ccc5nc(N[C@H]6CC[C@H](O)CC6)ncc5c4)n(C)n3)cc2C(F)(F)F)CC1`, the EC50 [1, 3] was under 5 nM and the EC50 [2] was under 5 nM.
Compound `CCc1cc(-c2cc(NC(=O)Nc3ccc(CN4CCN(C)CC4)c(C(F)(F)F)c3)nn2C)cc2cnc(N)nc12` has an EC50 [1, 3] of 5 to 50 nM and an EC50 [2] of 50 to 100 nM.
Compound `CN1CCN(Cc2cc(NC(=O)Nc3cc(-c4ccc5nc(NC6CCNCC6)ncc5c4)n(C)n3)cc(C(F)(F)F)c2)CC1` has an EC50 [1, 3] of over 100 nM and an EC50 [2] of over 100 nM.
In the case of `CCc1cc(-c2cc(NC(=O)Nc3ccc(CN4CCN(C)CC4)c(C(F)(F)F)c3)nn2C)cc2cnc(NC3CCC(O)CC3)nc12` (centres unmarked), the EC50 [1, 3] is reported as under 5 nM.
With `Cn1nc(NC(=O)Nc2ccc(CN3CCC(N)CC3)c(C(F)(F)F)c2)cc1-c1ccc2nc(N[C@H]3CC[C@H](N)CC3)ncc2c1` the EC50 [1, 3] was under 5 nM and the EC50 [2] was 50 to 100 nM.
For `CN1CCN(Cc2ccc(CC(=O)Nc3cc(-c4ccc5nc(NC6CCNCC6)ncc5c4)n(C)n3)cc2C(F)(F)F)CC1`, the EC50 [1, 3] was over 100 nM.
In the case of `CN1CCN(Cc2ccc(NC(=O)Nc3cc(-c4ccc5nc(N[C@H]6CCC[C@@H](N)C6)ncc5c4)n(C)n3)cc2C(F)(F)F)CC1`, the EC50 [1, 3] is reported as under 5 nM and the EC50 [2] is reported as over 100 nM.

Where a name gives a salt, the structure may show the parent alone.
